According to patent US12030872B2, “N-heteroaryl indazole derivatives as LRRK2 inhibitors, pharmaceutical compositions, and uses thereof” (Merck Sharp & Dohme LLC, priority 2018, dated 2024):
pIC50: −log10 of the molar value.

The chains behind the UniProt entries cited, without tags or fusion partners. Residues count along the entry.
UniProt Q5S007, 970-2527 G2019S: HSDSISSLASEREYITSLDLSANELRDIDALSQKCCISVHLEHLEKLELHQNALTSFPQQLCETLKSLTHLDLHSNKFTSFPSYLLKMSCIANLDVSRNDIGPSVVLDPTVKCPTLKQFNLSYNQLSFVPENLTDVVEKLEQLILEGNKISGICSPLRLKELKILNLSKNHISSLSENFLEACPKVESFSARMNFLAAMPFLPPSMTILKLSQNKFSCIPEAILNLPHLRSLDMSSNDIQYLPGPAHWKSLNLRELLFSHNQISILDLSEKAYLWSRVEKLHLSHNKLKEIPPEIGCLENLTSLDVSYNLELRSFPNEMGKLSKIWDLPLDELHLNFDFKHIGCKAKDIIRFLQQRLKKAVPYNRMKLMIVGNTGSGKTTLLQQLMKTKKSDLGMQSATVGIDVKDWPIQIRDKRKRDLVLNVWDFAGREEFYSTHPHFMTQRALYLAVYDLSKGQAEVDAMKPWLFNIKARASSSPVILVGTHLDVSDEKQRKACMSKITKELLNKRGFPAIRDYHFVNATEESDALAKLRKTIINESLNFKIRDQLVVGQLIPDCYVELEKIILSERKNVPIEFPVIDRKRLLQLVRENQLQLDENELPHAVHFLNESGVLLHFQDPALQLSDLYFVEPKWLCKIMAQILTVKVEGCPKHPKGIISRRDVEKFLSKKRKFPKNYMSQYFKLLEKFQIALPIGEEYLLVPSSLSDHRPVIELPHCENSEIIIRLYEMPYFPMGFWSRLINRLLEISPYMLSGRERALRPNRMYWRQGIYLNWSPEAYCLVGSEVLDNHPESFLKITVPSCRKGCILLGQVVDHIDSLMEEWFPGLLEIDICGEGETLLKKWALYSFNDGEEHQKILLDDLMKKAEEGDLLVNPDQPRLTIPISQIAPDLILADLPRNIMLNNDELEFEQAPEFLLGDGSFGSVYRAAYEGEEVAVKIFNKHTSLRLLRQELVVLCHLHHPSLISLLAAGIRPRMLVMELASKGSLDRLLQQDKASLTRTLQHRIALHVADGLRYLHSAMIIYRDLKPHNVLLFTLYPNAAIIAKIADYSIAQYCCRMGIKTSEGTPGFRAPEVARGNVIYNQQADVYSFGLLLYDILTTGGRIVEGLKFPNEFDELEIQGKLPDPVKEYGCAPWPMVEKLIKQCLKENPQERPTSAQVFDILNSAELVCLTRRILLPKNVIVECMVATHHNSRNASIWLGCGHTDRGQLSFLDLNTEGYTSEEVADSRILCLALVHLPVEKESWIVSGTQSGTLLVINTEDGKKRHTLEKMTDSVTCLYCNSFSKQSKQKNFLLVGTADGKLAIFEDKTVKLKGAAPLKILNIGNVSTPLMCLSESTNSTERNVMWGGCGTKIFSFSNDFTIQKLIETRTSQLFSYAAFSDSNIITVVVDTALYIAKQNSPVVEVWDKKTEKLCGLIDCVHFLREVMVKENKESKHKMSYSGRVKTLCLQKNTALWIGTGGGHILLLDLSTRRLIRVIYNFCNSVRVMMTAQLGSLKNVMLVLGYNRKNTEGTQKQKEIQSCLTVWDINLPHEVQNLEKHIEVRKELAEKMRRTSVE

The molecules below were run against GST-tagged truncated human mutant G2019S LRRK2 (Homo sapiens (Human), UniProt Q5S007, G2019S) (assay: LRRK2 G2019S Km ATP LanthaScreen Assay). Settings: LRRK2 IC50, G2019S LRRK2, 134 μM ATP (Km ATP), LRRKtide substrate; mean IC50 values.

| Compound | pIC50 |
| --- | --- |
| Cn1cc(-n2ncc3ccc([C@]4(C#N)CC45CC5)cc32)cn1 [Example 1.1, (S)-1-(1-(1-methyl-1H-pyrazol-4-yl)-1H-indazol-6-yl)spiro[2.2]pentane-1-carbonitrile] | 7.84 |
| CNC(=O)n1cc(-n2ncc3cc(Cl)c(C4CCN(C5COC5)CC4)cc32)cn1 [Example 5.1, 4-(5-chloro-6-(1-(oxetan-3-yl)piperidin-4-yl)-1H-indazol-1-yl)-N-methyl-1H-pyrazole-1-carboxamide] | 9.05 |
| Clc1cc2cnn(-c3cn[nH]c3)c2cc1C1CCN(C2COC2)CC1 [Example 4.1, 5-chloro-6-(1-(oxetan-3-yl)piperidin-4-yl)-1-(1H-pyrazol-4-yl)-1H-indazole] | 8.85 |
| Clc1cc2cnn(-c3cn(C4CC4)nn3)c2cc1C1CCN(C2COC2)CC1 [Example 3.2, 5-chloro-1-(1-cyclopropyl-1H-1,2,3-triazol-4-yl)-6-(1-(oxetan-3-yl)piperidin-4-yl)-1H-indazole] | 8.37 |
| CNC(=O)N1CCC(c2cc3c(cnn3-c3cnn(C)c3)cc2Cl)CC1 [Example 17.1, 4-(5-chloro-1-(1-methyl-1H-pyrazol-4-yl)-1H-indazol-6-yl)-N-methylpiperidine-1-carboxamide] | 7.84 |
| Cn1cc(-n2ncc3cc(Cl)c(C4CCNCC4)cc32)cn1 [Example 16.1, 5-chloro-1-(1-methyl-1H-pyrazol-4-yl)-6-(piperidin-4-yl)-1H-indazole] | 8.16 |
| Cn1cc(-n2ncc3cc(Cl)c(C4CC45CC5)cc32)cn1 (racemic) [Example 34.2, (R and S)-5-chloro-1-(1-methyl-1H-pyrazol-4-yl)-6-(spiro[2.2]pentan-1-yl)-1H-indazole] | 7.45 |

Same assay, conditions: read-out: LRRK2 IC50; G2019S LRRK2, 134 μM ATP (Km ATP), LRRKtide substrate; mean IC50 values

| Compound | pIC50 |
| --- | --- |
| Cc1cc2cnn(-c3cnn(C)c3)c2cc1C1CCN(C2COC2)C[C@H]1F (single isomer, unassigned) [Example 22.1-1, (R,R or S,S)-6-(3-fluoro-1-(oxetan-3-yl)piperidin-4-yl)-5-methyl-1-(1-methyl-1H-pyrazol-4-yl)-1H-indazole] | 8.08 |
| N#CC1(c2ccc3cnn(-c4cnn(-c5ccccc5)c4)c3c2)CC12CC2 (stereo not shown) [Example 1.2] | 7.70 |
| Cn1cc(-n2ncc3cc(Cl)c(C4CCN(C5COC5)CC4)cc32)nn1 [Example 2.11] | 7.95 |
| CCn1cc(-n2ncc3cc(Cl)c(C4CCN(C5COC5)CC4)cc32)cn1 [Example 2.7] | 8.64 |
| C[C@H]1CN(C2(C)COC2)CCC1c1cc2c(cnn2-c2cnn(C)c2)cc1Cl (single isomer, unassigned) [Example 27.5-2, (R,S or S,R)-5-chloro-6-(3-methyl-1-(3-methyloxetan-3-yl)piperidin-4-yl)-1-(1-methyl-1H-pyrazol-4-yl)-1H-indazole] | 7.90 |
| N#CC1(c2ccc3cnn(-c4cn(-c5ccccc5)cn4)c3c2)CC12CC2 (stereo not shown) [Example 1.4] | 7.89 |
